Amino acid sequences for entries named in this document (tags omitted). A change or cut given only in a name is not applied to a line headed by its entry.
UniProt Q9Y572: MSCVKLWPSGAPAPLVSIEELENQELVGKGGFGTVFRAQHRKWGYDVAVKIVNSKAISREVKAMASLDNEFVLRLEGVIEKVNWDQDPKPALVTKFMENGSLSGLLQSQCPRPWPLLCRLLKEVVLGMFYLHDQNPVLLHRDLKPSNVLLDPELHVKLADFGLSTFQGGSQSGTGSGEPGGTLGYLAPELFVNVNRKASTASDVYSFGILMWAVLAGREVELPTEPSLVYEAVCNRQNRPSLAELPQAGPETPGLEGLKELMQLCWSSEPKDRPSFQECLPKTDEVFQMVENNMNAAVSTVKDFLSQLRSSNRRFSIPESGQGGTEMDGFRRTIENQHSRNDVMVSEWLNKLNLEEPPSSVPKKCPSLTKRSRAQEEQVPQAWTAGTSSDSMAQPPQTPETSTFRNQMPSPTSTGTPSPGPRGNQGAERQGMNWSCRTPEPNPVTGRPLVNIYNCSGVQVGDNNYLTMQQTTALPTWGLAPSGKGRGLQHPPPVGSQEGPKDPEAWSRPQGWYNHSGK

In patent US20230227428A1 (Anaxis Pharma Pty Ltd, priority 2020, published 2023):

Assays:
Conditions in all cases: equilibrium dissociation constant
[1] = biological target: T1, RIP1 (Homo sapiens, UniProt Q13546); test: KINOMEscan binding affinity assay, RIP1
T1 construct: purchased DiscoverX (KINOMEscan service); host or cells: E. coli BL21-derived host (T7 phage) or HEK-293
T1 sequence (Q13546 1-671): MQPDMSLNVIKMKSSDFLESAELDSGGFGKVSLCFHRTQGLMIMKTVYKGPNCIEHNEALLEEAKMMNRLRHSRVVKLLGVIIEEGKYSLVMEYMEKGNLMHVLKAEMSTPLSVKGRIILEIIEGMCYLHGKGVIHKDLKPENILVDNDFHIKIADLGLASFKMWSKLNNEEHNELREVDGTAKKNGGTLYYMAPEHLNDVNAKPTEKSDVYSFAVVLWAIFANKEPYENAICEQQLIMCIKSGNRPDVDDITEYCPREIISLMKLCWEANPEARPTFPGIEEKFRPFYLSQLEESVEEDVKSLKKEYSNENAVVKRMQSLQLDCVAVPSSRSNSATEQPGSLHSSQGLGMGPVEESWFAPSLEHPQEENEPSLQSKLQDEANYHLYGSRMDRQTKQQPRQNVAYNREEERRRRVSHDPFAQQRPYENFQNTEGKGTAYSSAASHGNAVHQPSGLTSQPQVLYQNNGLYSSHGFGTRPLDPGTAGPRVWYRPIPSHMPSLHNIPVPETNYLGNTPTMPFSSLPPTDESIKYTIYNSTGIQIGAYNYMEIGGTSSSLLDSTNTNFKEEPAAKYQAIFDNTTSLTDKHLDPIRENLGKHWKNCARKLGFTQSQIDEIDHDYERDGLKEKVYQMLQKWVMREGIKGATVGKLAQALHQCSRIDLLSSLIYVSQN

[2] = biological target: T2, RIP3 (Homo sapiens, UniProt Q9Y572); test: KINOMEscan binding affinity assay, RIP3
T2 construct: purchased DiscoverX (KINOMEscan service); host or cells: E. coli BL21-derived host (T7 phage) or HEK-293

[3] = biological target: T3, MLKL (full length) (Homo sapiens, UniProt Q8NB16); test: KINOMEscan binding affinity assay, MLKL
T3 construct: purchased DiscoverX (KINOMEscan service); host or cells: E. coli BL21-derived host (T7 phage) or HEK-293
T3 sequence (Q8NB16 1-471): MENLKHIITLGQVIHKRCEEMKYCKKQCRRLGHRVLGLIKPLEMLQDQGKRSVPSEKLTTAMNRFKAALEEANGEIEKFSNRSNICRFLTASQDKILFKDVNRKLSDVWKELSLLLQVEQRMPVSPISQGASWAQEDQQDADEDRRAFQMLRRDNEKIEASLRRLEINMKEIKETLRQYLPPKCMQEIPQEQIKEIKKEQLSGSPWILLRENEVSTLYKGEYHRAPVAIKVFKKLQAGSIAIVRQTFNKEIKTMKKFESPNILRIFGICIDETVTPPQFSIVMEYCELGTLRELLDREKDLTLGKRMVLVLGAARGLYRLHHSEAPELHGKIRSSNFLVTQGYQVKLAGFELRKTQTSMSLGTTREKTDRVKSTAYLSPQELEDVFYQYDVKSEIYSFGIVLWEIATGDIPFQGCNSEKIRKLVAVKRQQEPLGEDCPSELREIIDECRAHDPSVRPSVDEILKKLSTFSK

Kd [1] [nM] | Kd [2] [nM] | Kd [3] [nM] | Structure (SMILES)
100 to 1000 | > 1000 | 100 to 1000 | NC(=O)c1c(-c2ccc(NC(=O)Nc3ccc(OC(F)(F)F)cc3)cc2)n[nH]c1Nc1ccncc1 [Compound 109, 5-(pyridin-4-ylamino)-3-(4-(3-(4-(trifluoromethoxy)phenyl)ureido)phenyl)-1H-pyrazole-4-carboxamide]
> 1000 | > 1000 | < 100 | COc1ccc(CC(=O)Nc2ccc(-c3n[nH]c(Nc4cnccn4)c3C(N)=O)cc2)cc1 [Compound 31, 3-(4-(2-(4-methoxyphenyl)acetamido)phenyl)-5-(pyrazin-2-ylamino)-1H-pyrazole-4-carboxamide]
> 1000 | > 1000 | < 100 | NC(=O)c1c(-c2ccc(NC(=O)N3CCc4ccccc4C3)cc2)n[nH]c1Nc1cnccn1 [Compound 101, N-(4-{4-carbamoyl-5-[(pyrazin-2-yl)amino]-1H-pyrazol-3-yl}phenyl)-1,2,3,4-tetrahydroisoquinoline-2-carboxamide]
> 1000 | > 1000 | 100 to 1000 | NC(=O)c1c(-c2ccc(NC(=O)Nc3ccc(OC(F)(F)F)cc3)cc2)n[nH]c1Nc1ccccn1 [Compound 108, 5-(pyridin-2-ylamino)-3-(4-(3-(4-(trifluoromethoxy)phenyl)ureido)phenyl)-1H-pyrazole-4-carboxamide]
> 1000 | > 1000 | < 100 | CN(c1ccccc1)c1c(Nc2ccc(-c3n[nH]c(Nc4ccccn4)c3C(N)=O)cc2)c(=O)c1=O [Compound 126, 3-(4-((2-(methyl(phenyl)amino)-3,4-dioxocyclobut-1-en-1-yl)amino)phenyl)-5-(pyridin-2-ylamino)-1H-pyrazole-4-carboxamide]
> 1000 | > 1000 | 100 to 1000 | COc1cc(Nc2[nH]nc(-c3ccc(NC(=O)N4CCC(c5cnn(C)c5)C4)cc3)c2C(N)=O)ccn1 (stereo not drawn) [Compound 74, 5-((2-methoxypyridin-4-yl)amino)-3-(4-(3-(1-methyl-1H-pyrazol-4-yl)pyrrolidine-1-carboxamido)phenyl)-1H-pyrazole-4-carboxamide]
> 1000 | > 1000 | < 100 | COCCOc1cc(Nc2[nH]nc(-c3ccc(NC(=O)C(C)N)cc3)c2C(N)=O)ccn1 (stereo not drawn) [Compound 18, 3-(4-(2-aminopropan-amido)phenyl)-5-((2-(2-methoxyethoxy)pyridin-4-yl)amino)-1H-pyrazole-4-carboxamide]
> 1000 | > 1000 | < 100 | NC(=O)c1c(-c2ccc(NC(=O)N3CCc4ccc(C(F)(F)F)cc4C3)cc2)n[nH]c1Nc1cccc(C(F)(F)F)n1 [Compound 77, N-(4-(4-carbamoyl-5-((6-(trifluoromethyl)pyridin-2-yl)amino)-1H-pyrazol-3-yl)phenyl)-7-(trifluoromethyl)-3,4-dihydroiso-quinoline-2(1H)-carboxamide]
> 1000 | > 1000 | > 1000 | NC(=O)c1c(-c2ccc(Nc3c(Nc4cccc(C(F)(F)F)c4)c(=O)c3=O)cc2)n[nH]c1Nc1ccncc1 [Compound 127, 3-(4-((3,4-dioxo-2-((3-(trifluoromethyl)phenyl)amino)cyclobut-1-en-1-yl)amino)phenyl)-5-(pyridin-4-ylamino)-1H-pyrazole-4-carboxamide]
> 1000 | > 1000 | > 1000 | CN1CCN(c2c(Nc3ccc(-c4n[nH]c(Nc5ccccn5)c4C(N)=O)cc3)c(=O)c2=O)CC1 [Compound 124, 3-(4-((2-(4-methylpiperazin-1-yl)-3,4-dioxocyclobut-1-en-1-yl)amino)phenyl)-5-(pyridin-2-ylamino)-1H-pyrazole-4-carboxamide]
> 1000 | > 1000 | 100 to 1000 | NC(=O)c1c(-c2ccc(Nc3c(Nc4ccc(F)cc4)c(=O)c3=O)cc2)n[nH]c1Nc1ccccn1 [Compound 122, 3-(4-((2-((4-fluorophenyl)amino)-3,4-dioxocyclobut-1-en-1-yl)amino)phenyl)-5-(pyridin-2-ylamino)-1H-pyrazole-4-carboxamide]
> 1000 | – | < 100 | COc1cc(Nc2[nH]nc(-c3ccc(NC(=O)N(C)CCc4ccccc4)cc3)c2C(N)=O)ccn1 [Compound 67, 5-((2-methoxypyridin-4-yl)amino)-3-(4-(3-methyl-3-phenethylureido)phenyl)-1H-pyrazole-4-carboxamide]
< 100 | – | < 100 | COc1cccc(C2CCCN(C(=O)Nc3ccc(-c4n[nH]c(Nc5cnccn5)c4C(N)=O)cc3)C2)c1 (stereo not drawn) [Compound 97, N-(4-(4-carbamoyl-5-(pyrazin-2-ylamino)-1H-pyrazol-3-yl)phenyl)-3-(3-methoxyphenyl)piperidine-1-carboxamide]
> 1000 | – | > 1000 | NC(=O)c1c(-c2ccc(NC(=O)Cc3cccnc3)cc2)n[nH]c1Nc1ccccn1 [Compound 11, 5-(pyridin-2-ylamino)-3-(4-(2-(pyridin-3-yl)acetamido)phenyl)-1H-pyrazole-4-carboxamide]
> 1000 | – | 100 to 1000 | COCCOc1cc(Nc2[nH]nc(-c3ccc(NC(C)=O)cc3)c2C(N)=O)ccn1 [Compound 16, 3-(4-acetamidophenyl)-5-((2-(2-methoxyethoxy)pyridin-4-yl)amino)-1H-pyrazole-4-carboxamide]
> 1000 | – | > 1000 | NC(=O)c1c(-c2ccc(Nc3c(N4CCOCC4)c(=O)c3=O)cc2)n[nH]c1Nc1ccccn1 [Compound 123, 3-(4-((2-morpholino-3,4-dioxocyclobut-1-en-1-yl)amino)phenyl)-5-(pyridin-2-ylamino)-1H-pyrazole-4-carboxamide]
> 1000 | – | < 100 | COc1cc(Nc2[nH]nc(-c3ccc(NC(=O)N4CCC(c5ccc(C(F)(F)F)cc5)C4)cc3)c2C(N)=O)ccn1 (stereo not drawn) [Compound 70, 5-((2-methoxypyridin-4-yl)amino)-3-(4-(3-(4-(trifluoromethyl)phenyl)pyrrolidine-1-carboxamido)phenyl)-1H-pyrazole-4-carboxamide]
> 1000 | – | 100 to 1000 | NC(=O)c1c(-c2ccc(Nc3c(Nc4ccc(C(F)(F)F)cc4)c(=O)c3=O)cc2)n[nH]c1Nc1ccccn1 [Compound 125, 3-(4-((3,4-dioxo-2-((4-(trifluoromethyl)phenyl)amino)cyclobut-1-en-1-yl)amino)phenyl)-5-(pyridin-2-ylamino)-1H-pyrazole-4-carboxamide]
> 1000 | – | > 1000 | NC(=O)c1c(-c2ccc(NC(=O)c3cnn(-c4ccc(Cl)cc4)c3)cc2)n[nH]c1Nc1cccc(C(F)(F)F)n1 [Compound 36, N-(4-(4-carbamoyl-5-((6-(trifluoromethyl)pyridin-2-yl)amino)-1H-pyrazol-3-yl)phenyl)-1-(4-chlorophenyl)-1H-pyrazole-4-carboxamide]
100 to 1000 | – | < 100 | COc1cc(Nc2[nH]nc(-c3ccc(NC(=O)N4CCC[C@H]4c4ccccc4)cc3)c2C(N)=O)ccn1 [Compound 103, (S)-5-((2-methoxypyridin-4-yl)amino)-3-(4-(2-phenylpyrrolidine-1-carboxamido)phenyl)-1H-pyrazole-4-carboxamide]
> 1000 | – | > 1000 | CNc1c(Nc2ccc(-c3n[nH]c(Nc4ccccn4)c3C(N)=O)cc2)c(=O)c1=O [Compound 118, 3-(4-((2-(methylamino)-3,4-dioxocyclobut-1-en-1-yl)amino)phenyl)-5-(pyridin-2-ylamino)-1H-pyrazole-4-carboxamide]
> 1000 | – | > 1000 | NC(=O)c1c(-c2ccc(NC(=O)N3CCC[C@@H](c4ccc(F)cc4)C3)cc2)n[nH]c1Nc1cccc(C(F)(F)F)n1 [Compound 79, (S)-N-(4-(4-carbamoyl-5-((6-(trifluoromethyl)pyridin-2-yl)amino)-1H-pyrazol-3-yl)phenyl)-3-(4-fluorophenyl)piperidine-1-carboxamide]
< 100 | – | < 100 | NC(=O)c1c(-c2ccc(NC(=O)N3CCCC(c4ccc(F)cc4)C3)cc2)n[nH]c1Nc1cnccn1 (stereo not drawn) [Compound 94, N-(4-(4-carbamoyl-5-(pyrazin-2-ylamino)-1H-pyrazol-3-yl)phenyl)-3-(4-fluorophenyl)piperidine-1-carboxamide]
